System: Colon organoid
Format: functional, Homo sapiens

SMILES	Cell Viability Ratio
CC(=O)C1=C(C)N(c2cccc(C(F)(F)F)c2)C(=O)N[C@@H]1c1ccc(C#N)nc1 [BAY-678]	0.9852
CC(=O)C1=C(C)N(c2cccc(C(F)(F)F)c2)C(=O)N[C@H]1c1ccc(C#N)nc1 [BAY-677]	1.109

Source: ChEMBL document CHEMBL5724803, “Viability screening in matched tumor and normal assay results for EUbOPEN Chemogenomics Library” (2024)
